Test system: MDBK cells
Experiment: Cytotoxicity in MDBK cultures (BVDV test)
Settings: table footnote, unit from the table's concentration head

SMILES: NC(=O)c1ncn([C@@H]2O[C@H](CO)[C@@H](O)[C@H]2O)n1 [Ribavirin, ribavirin, reference compound]
- MTC (minimum cytotoxic drug concentration): > 10 µg/mL
